Assay results taken from publication PMC11876601 (Molecular Systems Biology, 2025).

How the values were obtained:
PANC-1 cells = assay: Drug combination viability screen (ATPlite, 72 h); format: cell-based, human; design: EC50_FC_GEM low / EC50_FC_GEM high: unit not given beside the values
Procedure: (§1) Cell viability was assessed by measuring ATP levels to indicate metabolic activity.
(§2) Afterward, small amounts were transferred to 384-well intermediate plates (Greiner Bio-One GmbH, Germany). […] For drug combination screening, 1000 to 5000 cells were seeded into 384-well plates (CulturPlate™, Perkin Elmer, MA, USA) using a Multidrop™ Combi Reagent Dispenser (Thermo Scientific, MA, USA) in 50 µl medium per well 24 h prior to drug treatment (seeding densities see Appendix Table S1). […] The final DMSO concentration in each well was 0.2%. […] Eight wells per plate without library drug served as negative controls, and sixteen wells per plate containing 5 µM Staurosporine served as positive controls. Control plates not containing any drug were used to correct for incubation effects, and data quality was assessed by calculation of Z-prime of positive and negative controls according to1 Z-prime=1−3SDpos+3SDneg/[…] where SD is the standard deviation. […] Dose–response curves from the experimental and hypothetical data were compared, and shifts in AUC were used to describe combination effects (AUC∆ = AUChypothetical − AUCexperimental). […] Only combinations with R^2 > 0.8 in both conditions were considered in the synergy analysis.

PaTu-8988-T cells = assay: Drug combination viability screen (ATPlite, 72 h); format: cell-based, human; design: EC50_FC_GEM low / EC50_FC_GEM high: unit not given beside the values
Procedure: as §1, §2

SMILES: C[C@@H]1COCCN1c1cc(-c2ccnn2C)c2ccnc(-c3ccn[nH]3)c2n1 [Elimusertib]
- EC50_FC_GEM high (PANC-1 cells): 42.86
- EC50_FC_GEM low (PANC-1 cells): 8.97
- EC50_log2FC_GEM high (PANC-1 cells): 5.42
- EC50_log2FC_GEM low (PANC-1 cells): 3.16
- Synergy (PANC-1 cells): TRUE
- any_comb_pEC50_greater6 (PANC-1 cells): TRUE
- EC50_FC_GEM high (PaTu-8988-T cells): 159.08
- EC50_FC_GEM low (PaTu-8988-T cells): 9.69
- EC50_log2FC_GEM high (PaTu-8988-T cells): 7.31
- EC50_log2FC_GEM low (PaTu-8988-T cells): 3.28
- Synergy (PaTu-8988-T cells): TRUE
- any_comb_pEC50_greater6 (PaTu-8988-T cells): TRUE
